Assay results published in patent publication US12083115B2, “Methods for treating neurological symptoms associated with lysosomal storage diseases” (Genzyme Corporation, priority 2020, dated 2024).

The chains behind the UniProt entries cited, without tags or fusion partners. Where a name states a change or a piece, a line headed by the entry shows the natural chain unless it says otherwise.
UniProt Q16739: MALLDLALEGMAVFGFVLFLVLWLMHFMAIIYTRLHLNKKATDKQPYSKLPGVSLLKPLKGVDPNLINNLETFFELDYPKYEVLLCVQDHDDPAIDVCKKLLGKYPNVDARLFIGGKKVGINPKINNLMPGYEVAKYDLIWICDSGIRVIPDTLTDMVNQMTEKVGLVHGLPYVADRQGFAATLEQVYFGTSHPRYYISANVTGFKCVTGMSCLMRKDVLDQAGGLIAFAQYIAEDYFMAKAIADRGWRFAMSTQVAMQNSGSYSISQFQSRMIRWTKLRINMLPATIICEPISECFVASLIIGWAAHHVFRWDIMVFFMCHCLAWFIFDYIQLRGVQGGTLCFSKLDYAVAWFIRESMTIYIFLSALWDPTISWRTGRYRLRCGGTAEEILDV

How the values were obtained:
[1] = biological target: glucosylceramide synthase (Homo sapiens (Human), UniProt Q16739); test: Glucosylceramide synthase activity microsomal assay; assay type: biochemical; conditions: microsomes from A375 human melanoma cells; read-out: GCS IC50
Description: Inhibition of glucosylceramide synthase activity can be measured with one or more assays. A first assay is a microsomal assay that directly measures the conversion of ceramide to glucosylceramide by HPLC. Microsomes are a source of glucosylceramide synthase activity in the microsomal assay. A second assay is a cell based, phenotypic assay that monitors cell surface expression of the downstream lipid GM3 by antibody mediated immunofluorescence. Specific protocols are provided below.
An enzyme assay using microsomes as a source of glucosylceramide synthase activity. Fluorescent ceramide substrate is delivered to membrane-bound enzyme as a complex with albumin. After reaction, ceramide and glucosylceramide are separated and quantitated by reverse-phase HPLC with fluorescence detection. Enzymatic activity is assessed using a fluorescent labeled substrate and microsomes as a source of glucosylceramide synthase. […] Separation and quantitation of substrate and product (glucosylceramide) are achieved by reverse-phase HPLC with fluorescence detection. […]
The reaction is stopped by the addition of 150 μL of 100 μM C8-ceramide in 50% aq. isopropanol; 10 μL of the final mix is analyzed on HPLC (with fluorescence detector). […] Fluorescence is detected with λex=470 nm and λem=530 nm. […] The percent conversion of substrate to product is used as the readout for inhibitor testing. […]

[2] = Study 1 Part 1: ascending single-dose PK in healthy men; assay type: in vivo, human; conditions: for CL/F, Mean (SD): healthy men
Description: (§1) Study 1 was a 2-part single-center trial in healthy adult male volunteers. Part 1 was a double-blind, randomized, placebo-controlled sequential ascending single-dose study of Compound 2 for safety, tolerability, and PK. Part 2 was an open-label, single-cohort, randomized, 2-sequence, 2-period, 2-treatment crossover study of Compound 2 for PK with and without a high-fat meal.
Part 1 of the study enrolled and randomized 55 healthy men (placebo, n=14; 2-, 5-, 15, 25-, 50, and 100-mg doses, n=6 each; 150-mg dose, n=5). Eight healthy men participated in Part 2.
In Part 1, the subjects were randomized to receive 2, 5, 15, 25, 50, 100, or 150 mg of Compound 2 (L-malic salt form, i.e., expressed under L-malic salt form) or matching placebo on the morning of the first day after at least a 10-hour fast. In Part 2, the subjects were randomized to receive a single oral dose of 5 mg Compound 2 either while fasting (at least 10 hours before and 4 hours after administration) or 30 minutes after a standardized high-fat breakfast (˜815 kcal). […]
In Study 1, Part 1, blood was sampled for plasma concentrations of Compound 2 at the time of study drug administration (0 hour) and 0.5, 1, 2, 3, 4, 5, 6, 8, 10, 12, 16, 24, 48, 72, and 96 hours post-dose. Urine samples were collected for analysis of Compound 2 concentrations beginning 2 hours before study drug administration through 48 hours afterward.

[3] = Study 1 Part 2: PK with and without a high-fat meal; assay type: in vivo, human; conditions: 5 mg single dose
Method: as §1
In Part 1, the subjects were randomized to receive 2, 5, 15, 25, 50, 100, or 150 mg of Compound 2 (L-malic salt form, i.e., expressed under L-malic salt form) or matching placebo on the morning of the first day after at least a 10-hour fast. In Part 2, the subjects were randomized to receive a single oral dose of 5 mg Compound 2 either while fasting (at least 10 hours before and 4 hours after administration) or 30 minutes after a standardized high-fat breakfast (˜815 kcal). After a 7-day washout period, participants were crossed over to the other condition.
In Study 1, Part 2, blood was sampled for plasma concentrations if Compound 2 at 0, 0.5, 1, 2, 3, 4, 5, 6, 8, 10, 12, 16, 24, and 48 hours post-dose.

[4] = Study 2: ascending repeated-dose PK in healthy adults; assay type: in vivo, human
Method: (§2) Study 2 was a single-center, double-blind, randomized, placebo-controlled, sequential ascending repeated-dose study of the safety, tolerability, PK, and pharmacodynamics of Compound 2 in healthy adult male and female volunteers.
(§3) The study enrolled and randomized 36 healthy adults (19 men and 17 women) (n=9 each to group). The subjects were randomized to receive once-daily doses of Compound 2 at 5, 10, or 20 mg (provided as 5-mg capsules of the L-malic salt form) or placebo for 14 days after at least a 10-hour fast.
(§4) Blood was sampled for plasma concentrations of Compound 2 as follows: Day 1 at 0, 0.5, 1, 2, 3, 4, 5, 6, 8, 10, 12, and 16 hours post-dose; On Days 2-5, 8, 11, and 13, at 0 h; On Day 14, at 0.5, 1, 2, 3, 4, 5, 6, 8, 10, and 12 hours post-dose; On Days 15-17, at 24, 48, and 72 hours, respectively, after the Day 14 dose. Urine samples were collected for analysis of Compound 2 concentrations on Day 1 (0 hours post-dose) and continuously on Day 14 from 0-24 hours post-dose. Pharmacodynamic endpoints (plasma GL-1, GL-3, and GM3 concentrations) were assessed on Days 1-5, 8, 11, 13, and 14, at 0 hours […]; and on Day 15, at 24 hours after the Day 14 dose.

[5] = test system: plasma GL-1 (glucosylceramide); test: Study 2: plasma GL-1 pharmacodynamics; assay type: in vivo, human; conditions: Day 15
Method: as §2, §3, §4

[6] = test system: plasma GL-3 (globotriaosylceramide); test: Study 2: plasma GL-3 pharmacodynamics; assay type: in vivo, human; conditions: Day 15
Method: as §2, §3, §4

[7] = test system: plasma GM3 (GM3 ganglioside); test: Study 2: plasma GM3 pharmacodynamics; assay type: in vivo, human; conditions: Day 15
Method: as §2, §3, §4

[8] = 75-fold dose increase (2 to 150 mg)
[9] = Day 14, 4-fold dose increase (5-20 mg)

CC(C)(NC(=O)O[C@@H]1CN2CCC1CC2)c1csc(-c2ccc(F)cc2)n1 [Compound 2, (S)-quinuclidin-3-yl 2-(2-(4-fluorophenyl)thiazol-4-yl)propan-2-ylcarbamate]
IC50 [1]: 60.1 µM | CL/F, Mean (SD) ([2]; 2 mg single dose, N = 6): 6.43 (1.41) L/h | CL/F, Mean (SD) ([2]; 5 mg single dose, N = 6): 5.86 (1.01) L/h | CL/F, Mean (SD) ([2]; 15 mg single dose, N = 6): 5.85 (1.89) L/h | CL/F, Mean (SD) ([2]; 25 mg single dose, N = 6): 5.18 (1.31) L/h | CL/F, Mean (SD) ([2]; 50 mg single dose, N = 6): 5.75 (2.01) L/h | CL/F, Mean (SD) ([2]; 100 mg single dose, N = 6): 5.38 (1.25) L/h | CL/F, Mean (SD) ([2]; 150 mg single dose, N = 5): 5.80 (1.55) L/h | fold increase in geometric mean AUCinf [2, 8]: 85.9 fold | fold increase in geometric mean AUClast [2, 8]: 89.2 fold | fold increase in geometric mean Cmax [2, 8]: 97.3 fold | Fed/fasted geometric mean ratio, AUClast [3]: 0.91 | Fed/fasted geometric mean ratio, Cmax [3]: 0.92 | CLR(0-24) fold lower than observed plasma CL/F ([4]; After 14 once-daily doses, 5-20 mg): 3.18-3.86 fold | fold increase in geometric mean AUC0-24 [4, 9]: 3.69 fold | fold increase in geometric mean Cmax [4, 9]: 3.76 fold | GL-1, point estimate of treatment ratio ([5]; 5 mg vs placebo): 0.39 | GL-1, point estimate of treatment ratio ([5]; 10 mg vs placebo): 0.32 | GL-1, point estimate of treatment ratio ([5]; 20 mg vs placebo): 0.23 | GL-3, point estimate of treatment ratio ([6]; 5 mg vs placebo): 0.61 | GL-3, point estimate of treatment ratio ([6]; 10 mg vs placebo): 0.69 | GL-3, point estimate of treatment ratio ([6]; 20 mg vs placebo): 0.67 | GM3, point estimate of treatment ratio ([7]; 5 mg vs placebo): 0.56 | GM3, point estimate of treatment ratio ([7]; 10 mg vs placebo): 0.49 | GM3, point estimate of treatment ratio ([7]; 20 mg vs placebo): 0.40
